In ChEMBL document CHEMBL1921786, “Synthesis and testing of trifluoromethyl-containing phosphonate-peptide conjugates as inhibitors of serine hydrolases” (2011):

Test: Ratio of IC50 for pig liver carboxylesterase to IC50 for horse serum BChE

| SMILES | Ratio IC50 |
| --- | --- |
| CC(C)[C@@H](Cn1cc(COP(C)(=O)OC(C(F)(F)F)C(F)(F)F)nn1)NC(=O)CN(Cc1ccccc1)C(=O)[C@H](C)NC(=O)OC(C)(C)C (stereo not given in full) | 1 |
| C#CCOP(C)(=O)OC(C(F)(F)F)C(F)(F)F (stereo not given) | 11 |
| CC[C@H](C)[C@@H](Cn1cc(COP(C)(=O)OC(C(F)(F)F)C(F)(F)F)nn1)NC(=O)CN(Cc1ccccc1)C(=O)C(F)(F)F (stereo not given in full) | 11 |
| COC(=O)C(OP(C)(=O)OCc1cn(C[C@@H](NC(=O)CN(Cc2ccccc2)C(=O)[C@H](C)NC(=O)OC(C)(C)C)C(C)C)nn1)C(F)(F)F (stereo not given in full) | 12 |
| C#CCOP(C)(=O)OC(C(=O)OC)C(F)(F)F (stereo not given) | 5 |
| CC(C)(C(=O)NCCn1cc(COP(C)(=O)OC(C(F)(F)F)C(F)(F)F)nn1)N(Cc1ccccc1)C(=O)C(F)(F)F (stereo not given) | 5 |
| C[C@@H](Cn1cc(COP(C)(=O)OC(C(F)(F)F)C(F)(F)F)nn1)NC(=O)CN(Cc1ccccc1)C(=O)C(F)(F)F (stereo not given in full) | 1 |
| CC[C@H](C)[C@H](NC(=O)OC(C)(C)C)C(=O)N(Cc1ccc(OC)cc1OC)C(C)(C)C(=O)N[C@@H](C)Cn1cc(COP(C)(=O)OC(C(F)(F)F)C(F)(F)F)nn1 (stereo not given in full) | 1 |
| CC(C)[C@@H](Cn1cc(COP(C)(=O)OC(C(F)(F)F)C(F)(F)F)nn1)NC(=O)CN(Cc1ccccc1)C(=O)C(F)(F)F (stereo not given in full) | 13 |
| COC(=O)C(OP(C)(=O)OCc1cn(C[C@@H](NC(=O)CN(Cc2ccccc2)C(=O)C(F)(F)F)C(C)C)nn1)C(F)(F)F (stereo not given in full) | 13 |
